This assay concerns the target Tyrosine-protein phosphatase non-receptor type 11 (Homo sapiens, UniProt Q06124). Put plainly: SHP2 Allosteric Inhibition Assay: More specifically, the phosphatase reactions were performed at room temperature in 384-well black polystyrene plate, flat bottom, low flange, non-binding surface (Corning, Cat#3575) using a final reaction volume of 25 μL and the following assay buffer conditions: 60 mM HEPES, pH 7.2, 75 mM NaCl, 75 mM KCl, 1 mM EDTA, 0.05% P-20, 5 mM DTT. The inhibition of SHP2 ….

Protein sequences, listed by entry. Tags and fused reporters are not part of them.
UniProt Q06124, whole entry: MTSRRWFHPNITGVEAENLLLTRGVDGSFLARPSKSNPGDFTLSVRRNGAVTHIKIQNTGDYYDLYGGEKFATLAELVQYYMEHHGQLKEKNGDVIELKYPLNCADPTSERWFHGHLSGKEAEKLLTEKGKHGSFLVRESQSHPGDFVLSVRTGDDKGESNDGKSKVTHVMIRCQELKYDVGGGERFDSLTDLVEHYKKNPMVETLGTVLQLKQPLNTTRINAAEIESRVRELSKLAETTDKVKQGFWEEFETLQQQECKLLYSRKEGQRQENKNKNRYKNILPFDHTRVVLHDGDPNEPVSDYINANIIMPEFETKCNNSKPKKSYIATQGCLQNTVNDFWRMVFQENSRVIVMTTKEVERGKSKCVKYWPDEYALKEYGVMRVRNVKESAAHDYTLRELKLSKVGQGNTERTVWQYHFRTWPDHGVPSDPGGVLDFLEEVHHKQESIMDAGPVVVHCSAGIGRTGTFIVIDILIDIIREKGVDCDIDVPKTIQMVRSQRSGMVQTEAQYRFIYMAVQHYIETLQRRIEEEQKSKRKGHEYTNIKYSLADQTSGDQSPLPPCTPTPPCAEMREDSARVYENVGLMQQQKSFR

These results are taken from ChEMBL document CHEMBL5725752, “1-pyridazin-/triazin-3-yl-piper(-azine)/idine/pyrolidine derivatives and compositions thereof for inhibiting the activity of SHP2” (2018).

Usually IC50 stands for the concentration needed to halve the response being measured. Low readings indicate higher potency, high ones lower potency.

For the molecule `CC1(N)CCN(c2cnc(-c3cccc4cc[nH]c34)c(N)n2)CC1`, the IC50 came out at 632 nM.
